Earlier results on 1 substance are cited in patent US8999940B2, “Analogues of glucose-dependent insulinotropic polypeptide (GIP) modified at N-terminal” (Ipsen Pharma S.A.S., priority 2008, dated 2015).

The conditions of this series: unmodified GIP; Said and Mutt, 1970; cited from earlier work.

For the substance “Glucose-dependent insulinotropic polypeptide [GIP]”, the in vivo half-life entry is “about 2 minutes”.
